Columns and labels:
[1] = Affinity for hydroxyapatite after 24 hours; assay type: functional
[2] = Dissociation constant determined by the pH-metric method; assay type: functional

Compound | Affinity [1] [%] | pKa1 [2] | pKa2 [2] | pKa3 [2] | pKa4 [2]
O=[N+]([O-])OCC(CCCC(O)(P(=O)(O)O)P(=O)(O)O)O[N+](=O)[O-] (stereo not given) | 46.3 | < 1.5 | 3.11 | 6.69 | 11.5
O=[N+]([O-])OCC(CCCC(P(=O)(O)O)P(=O)(O)O)O[N+](=O)[O-] (stereo not given) | 68.1 | < 1.5 | 2.71 | 6.6 | 11.2

Source: ChEMBL document CHEMBL1142690, “Synthesis of NO-donor bisphosphonates and their in-vitro action on bone resorption” (J Med Chem, 2005)
